Test results: patent US9604998B2, “Inhibitors of the renal outer medullary potassium channel” (MERCK SHARP & DOHME CORP., priority 2013, dated 2017)
Where a name gives a salt, the structure may show the parent alone.

The chains behind the UniProt entries cited, without tags or fusion partners.
UniProt P48048, whole entry, species assumed: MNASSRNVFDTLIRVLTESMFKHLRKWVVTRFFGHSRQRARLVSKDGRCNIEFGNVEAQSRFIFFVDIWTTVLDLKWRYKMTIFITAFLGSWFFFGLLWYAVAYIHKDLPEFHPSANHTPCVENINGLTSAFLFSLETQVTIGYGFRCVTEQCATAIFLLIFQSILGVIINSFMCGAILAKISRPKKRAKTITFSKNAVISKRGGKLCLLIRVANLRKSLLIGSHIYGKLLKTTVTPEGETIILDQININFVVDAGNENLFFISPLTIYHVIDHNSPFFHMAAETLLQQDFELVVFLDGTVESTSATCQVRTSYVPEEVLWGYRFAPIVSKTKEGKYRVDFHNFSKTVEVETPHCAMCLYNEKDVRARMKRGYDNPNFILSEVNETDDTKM

Columns and labels:
hROMK (hKir1.1) = hROMK (hKir1.1) (Homo sapiens (Human), UniProt P48048); experiment: Thallium Flux Assay (ROMK channel functional thallium flux, FLIPR-Tetra); format: cell-based; conditions: HEK293 cells stably expressing hROMK (hKir1.1)
Method: HEK293 cells stably expressing hROMK (hKir1.1) were grown at 37° C. in a 10% CO2 humidified incubator in complete growth media: Dulbecco's Modified Eagle Medium supplemented with non-essential amino acids, Penicillin/Streptomycin/Glutamine, G418 and FBS. At >80% confluency, aspirate the media from the flask and rinse with 10 mL Calcium/Magnesium-free PBS. […] To dislodge the cell, gently bang the side of the flask with your hand. Triturate the cells completely and then transfer the cells to 25 mL complete media. Centrifuge at 1,500 rpm for 6 min followed by resuspension in complete growth media and determine cell concentration. […] Under ideal growth conditions and appropriate tissue culture practices, this cell line is stable for 40-45 passages.
Compound Buffer (per microplate): 20 mL Probenecid/Assay Buffer; 0.3 mM ouabain (10 mM ouabain in water can be stored in amber bottle/aluminum foil at room temperature); Test compound
Stimulant Buffer (prepared at 5× final concentration in 1× FluxOR™ Chloride-Free Buffer): 7.5 mM Thallium sulfate and […] (to give a final assay concentration of 3 mM Thallium/0.3 mM Potassium). Store at 4° C. when not in use. If kept sterile, this solution is good for months.
The ROMK channel functional thallium flux assay is performed in 384 wells, using the FLIPR-Tetra instrument. HEK-hKir1.1 cells are seeded in Poly-D-Lysine microplates and kept in a 37° C.-10% CO2 incubator overnight. On the day of the experiment, the growth media is replaced with the FluxOR™ reagent loading buffer and incubated, protected from light, at ambient temperature (23-25° C.) for 90 min. The loading buffer is replaced with assay buffer±test compound followed by 30 min incubation at ambient temperature, where the Thallium/Potassium stimulant is added to the microplate.
1. Seed HEK-hKir1.1 cells (50 μl at 20,000 cells/well) in 384-well PDL coated Microplates
2. Allow cells to adhere overnight in humidified 37° C./10% CO2 incubator
3. Completely remove cell growth media from microplate and replace with 25 μl loading buffer
4. Incubate Microplate at room temperature, protected form light, for 90 min
5. Remove loading buffer and replace with 25 μl 1× Assay Buffer±test compound.
6. Incubate microplate at room temperature, protected from light, for 30 min
7. […] Excitation=400 nm, Emission=460 & 580 nm. Collect data for ˜10 min.
The fluorescence intensity of wells containing 3 μM of a standard control ROMK inhibitor of the present invention is used to define the ROMK-sensitive component of thallium flux. Fluorescence in the presence of test compounds is normalized to control values to provide % fluorescence change.

Kir1.1 (ROMK1) = Kir1.1 (ROMK1) (Homo sapiens (Human), UniProt P48048); experiment: Electrophysiology Assay (whole cell voltage clamp, IonWorks Quattro); format: cell-based; conditions: Chinese hamster ovary cells stably expressing Kir1.1; block during voltage step to 0 mV
Method: Chinese hamster ovary cells stably expressing Kir1.1 channels were maintained in T-75 flasks in cell culture media in a humidified 10% CO2 incubator at 37° C. Prior to an experiment, Kir1.1 expression was induced by overnight incubation with 1 mM sodium butyrate. […] After centrifugation, the cell pellet was resuspended in approximately 4.0 mL of bath solution and placed in the IonWorks instrument. The intracellular solution consisted of (in mM): 80 K gluconate, 40 KCl, 20 KF, 3.2 MgCl2, 3 EGTA, 5 Hepes, pH 7.4. Electrical access to the cytoplasm was achieved by perforation in 0.13 mg/mL amphotericin B for 4 min. […] Voltage protocols and current recordings were performed using the IonWorks HT software/hardware system. Currents were sampled at 1 kHz. No correction for liquid junction potentials was used. The test pulse, consisting of a 100 ms step to 0 mV from a holding potential of −70 mV, followed by a 100 ms voltage ramp from −70 mV to +70 mV, was applied before and after a 6 min compound incubation period. Test compounds were prepared by diluting DMSO stock solutions into the bath solution at 3× the final concentration and placed in the instrument in 96-well polypropylene plates. Current amplitudes were measured using the IonWorks software.

SMILES	IC50 (hROMK (hKir1.1))	IC50 (Kir1.1 (ROMK1))
COc1c(C(O)CN2CCN3C[C@@H](c4ccc5c(c4C)COC5=O)OC[C@H]3C2)ccc(C#N)c1F (single isomer, unassigned) [Example 41]	230 nM	140 nM
Cc1c([C@@H]2CN3CCN(C[C@H](O)c4ccc5c(c4C)COC5=O)C[C@H]3CO2)ccc(F)c1C#N [Example 5, (3R,9aS)-3-(3-cyano-4-fluoro-2-methylphenyl)-8-[(2R)-2-hydroxy-2-(4-methyl-1-oxo-1,3-dihydro-2-benzofuran-5-yl)ethyl]octahydropyrazino[2,1-c][1,4]oxazin-5-ium trifluoroacetate]	280 nM	100 nM
Cc1c([C@H]2CN3CCN(C[C@H](O)c4ccc5c(c4C)COC5=O)C[C@H]3CO2)ccc(F)c1C#N [Example 6, (3S,9aS)-3-(3-cyano-4-fluoro-2-methylphenyl)-8-[(2R)-2-hydroxy-2-(4-methyl-1-oxo-1,3-dihydro-2-benzofuran-5-yl)ethyl]octahydropyrazino[2,1-c][1,4]oxazin-5-ium trifluoroacetate]	190 nM	–
Cc1c([C@H]2CN3CCN(C[C@H](O)c4ccc5c(c4C)COC5=O)C[C@@H]3CO2)ccc(F)c1C#N [Example 7, (3S,9aR)-3-(3-cyano-4-fluoro-2-methylphenyl)-8-[(2R)-2-hydroxy-2-(4-methyl-1-oxo-1,3-dihydro-2-benzofuran-5-yl)ethyl]octahydropyrazino[2,1-c][1,4]oxazin-5-ium chloride]	290 nM	110 nM
Cc1c([C@@H]2CN3CCN(C[C@H](O)c4ccc5c(c4C)COC5=O)C[C@@H]3CO2)ccc(F)c1C#N [Example 8, (3R,9aR)-3-(3-cyano-4-fluoro-2-methylphenyl)-8-[(2R)-2-hydroxy-2-(4-methyl-1-oxo-1,3-dihydro-2-benzofuran-5-yl)ethyl]octahydropyrazino[2,1-c][1,4]oxazin-5-ium chloride]	340 nM	–
COc1c(C(O)CN2CCN3C[C@@H](c4ccc5c(c4C)COC5=O)OC[C@H]3C2)ccc(C#N)c1F (stereo partly drawn) [Example 33, (3R,9aR)-8-[2-(4-cyano-3-fluoro-2-methoxyphenyl)-2-hydroxyethyl]-3-(4-methyl-1-oxo-1,3-dihydro-2-benzofuran-5-yl)octahydropyrazino[2,1-c][1,4]oxazin-5-ium chloride]	600 nM	170 nM
COc1c(C(O)CN2CCN3C[C@@H](c4ccc5c(c4C)COC5=O)OC[C@@H]3C2)ccc(C#N)c1F (stereo partly drawn) [Example 34, (3R,9aS)-8-[2-(4-cyano-3-fluoro-2-methoxyphenyl)-2-hydroxyethyl]-3-(4-methyl-1-oxo-1,3-dihydro-2-benzofuran-5-yl)octahydropyrazino[2,1-c][1,4]oxazin-5-ium chloride]	–	150 nM
COc1c(C(O)CN2CCN3C[C@H](c4ccc5c(c4C)COC5=O)OC[C@@H]3C2)ccc(C#N)c1F (stereo partly drawn) [Example 35, (3S,9aS)-8-[2-(4-cyano-3-fluoro-2-methoxyphenyl)-2-hydroxyethyl]-3-(4-methyl-1-oxo-1,3-dihydro-2-benzofuran-5-yl)octahydropyrazino[2,1-c][1,4]oxazin-5-ium chloride]	270 nM	130 nM
COc1c(C(O)CN2CCN3C[C@@H](c4ccc5c(c4C)COC5=O)OC[C@@H]3C2)ccc(C#N)c1F (stereo partly drawn) [Example 39, (3R,9aS)-8-[2-(4-cyano-3-fluoro-2-methoxyphenyl)-2-hydroxyethyl]-3-(4-methyl-1-oxo-1,3-dihydro-2-benzofuran-5-yl)octahydropyrazino[2,1-c][1,4]oxazin-5-ium chloride]	300 nM	–
COc1c(C(O)CN2CCN3C[C@H](c4ccc5c(c4C)COC5=O)OC[C@@H]3C2)ccc(C#N)c1F (stereo partly drawn) [Example 40, (3S,9aS)-8-[2-(4-cyano-3-fluoro-2-methoxyphenyl)-2-hydroxyethyl]-3-(4-methyl-1-oxo-1,3-dihydro-2-benzofuran-5-yl)octahydropyrazino[2,1-c][1,4]oxazin-5-ium chloride]	260 nM	110 nM
